Among the data in ChEMBL document CHEMBL1148502, “Carbonic anhydrase inhibitors: inhibition of the cytosolic human isozyme VII with anions” (Bioorg Med Chem Lett, 2006) are Ki values, retold here.

The chains behind the UniProt entries cited, without tags or fusion partners. Where a name states a change or a piece, a line headed by the entry shows the natural chain unless it says otherwise.
UniProt P43166: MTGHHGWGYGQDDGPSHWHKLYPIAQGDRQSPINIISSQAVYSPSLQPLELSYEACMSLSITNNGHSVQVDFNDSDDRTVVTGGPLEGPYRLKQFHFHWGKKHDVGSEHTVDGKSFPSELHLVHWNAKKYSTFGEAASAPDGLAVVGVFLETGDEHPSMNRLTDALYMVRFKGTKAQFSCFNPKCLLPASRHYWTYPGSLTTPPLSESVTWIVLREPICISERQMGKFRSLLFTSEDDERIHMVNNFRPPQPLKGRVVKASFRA

This experiment has as its target Carbonic anhydrase 7 (Homo sapiens, UniProt P43166).

pKi: −log10 of the molar value.

Turning to `O=[As](O)(O)c1ccccc1`, the pKi was 4.90.

What is called pKi is −log10 of the Ki, conventionally taken in molar units. A higher pKi goes with a small Ki.
